Test: Urinary excretion of phenylbutyrate, benzoate and their conjugated products; nitrogen conjugation in 24 h urine
Conditions: ^15N labeled test meal
Experimental: This was a randomized, three-arm, crossover study. Each arm was completed over a four-day period with a washout period of at least 7 days between any two of the treatment arms (FIG. 1). […] The treatments were designed to provide isomolar amount of drugs and the total daily dose was administered in three equally divided doses.
On day 1 of study arm 1, detailed medical history review and physical examination were performed. Complete blood count, comprehensive metabolic panel, plasma ammonia, and urinalysis (safety laboratory measurements) were performed. Urine pregnancy test was performed on all females. […]
Plasma and urinary drugs and their conjugated products as well as urea and amino acids were determined by mass spectrometry and quantitated based on the dilution of labeled internal standards. Total urinary nitrogen was determined using the micro-Kjeldahl method.
Plasma and urinary phenylbutyrate, PAA, and benzoate were determined as their pentafluorobenzyl derivatives by NCI-GC-MS; . […] Underivatized PAGN and HA were measured by HESI LC-MS/MS; [^2H5] […]
Accordingly, these background values were subtracted from the values obtained during the treatment with phenylbutyrate and benzoate. The total amount of nitrogen conjugated was expressed as fraction of the test meal, by dividing by the total nitrogen content of the test meal. […]

sodium phenylbutyrate [NaPB]
Urinary 5-[^15N] PAGN: 142.0 μmol/24 h
